Test results taken from the NIST ThermoML archive (doi:10.1016/j.jct.2008.06.001).

Assays:
[1] = 101.33 kPa, Liquid; for speed of sound: Sing-around technique in a fixed-path interferometer
[2] = xn = mol fraction of the nth substance listed; conditions: 101 kPa, Liquid

## CCCCOCCCC [dibutyl ether]
[1]; 293.15 K
  mass density: 768.468 ± 0.52 kg/m3
  speed of sound: 1181.8 ± 0.8 m/s
[1]; 298.15 K
  mass density: 764.17 ± 0.53 kg/m3
  speed of sound: 1161.2 ± 0.79 m/s
[1]; 303.15 K
  mass density: 759.829 ± 0.54 kg/m3
  speed of sound: 1142.1 ± 0.78 m/s

## CCCCOCCCC [dibutyl ether] + CCCCCCCCO
[2]; 293.15 K, x2 = 0.1021
  mass density: 774.774 ± 0.51 kg/m3
[2]; 293.15 K, x2 = 0.1491
  mass density: 777.553 ± 0.51 kg/m3
[2]; 293.15 K, x2 = 0.1997
  mass density: 780.513 ± 0.51 kg/m3
[2]; 293.15 K, x2 = 0.2473
  mass density: 783.26 ± 0.51 kg/m3
[2]; 293.15 K, x2 = 0.2979
  mass density: 786.177 ± 0.51 kg/m3
[2]; 293.15 K, x2 = 0.3497
  mass density: 789.095 ± 0.51 kg/m3
[2]; 293.15 K, x2 = 0.4017
  mass density: 792.053 ± 0.51 kg/m3
[2]; 293.15 K, x2 = 0.4493
  mass density: 794.746 ± 0.51 kg/m3
[2]; 293.15 K, x2 = 0.4972
  mass density: 797.47 ± 0.51 kg/m3
[2]; 293.15 K, x2 = 0.5504
  mass density: 800.439 ± 0.51 kg/m3
[2]; 293.15 K, x2 = 0.6001
  mass density: 803.218 ± 0.51 kg/m3
[2]; 293.15 K, x2 = 0.6455
  mass density: 805.774 ± 0.52 kg/m3
[2]; 293.15 K, x2 = 0.6985
  mass density: 808.712 ± 0.52 kg/m3
[2]; 293.15 K, x2 = 0.7484
  mass density: 811.495 ± 0.52 kg/m3
[2]; 293.15 K, x2 = 0.7994
  mass density: 814.29 ± 0.52 kg/m3
[2]; 293.15 K, x2 = 0.8484
  mass density: 816.969 ± 0.52 kg/m3
[2]; 293.15 K, x2 = 0.9004
  mass density: 819.813 ± 0.53 kg/m3
[2]; 293.15 K, x2 = 0.949
  mass density: 822.438 ± 0.53 kg/m3
[2]; 298.15 K, x2 = 0.0511
  mass density: 767.422 ± 0.52 kg/m3
[2]; 298.15 K, x2 = 0.1005
  mass density: 770.448 ± 0.52 kg/m3
[2]; 298.15 K, x2 = 0.1486
  mass density: 773.364 ± 0.52 kg/m3
[2]; 298.15 K, x2 = 0.1998
  mass density: 776.391 ± 0.52 kg/m3
[2]; 298.15 K, x2 = 0.2458
  mass density: 779.081 ± 0.52 kg/m3
[2]; 298.15 K, x2 = 0.2978
  mass density: 782.1 ± 0.52 kg/m3
[2]; 298.15 K, x2 = 0.3497
  mass density: 785.119 ± 0.52 kg/m3
[2]; 298.15 K, x2 = 0.4009
  mass density: 788.072 ± 0.52 kg/m3
[2]; 298.15 K, x2 = 0.4475
  mass density: 790.743 ± 0.52 kg/m3
[2]; 298.15 K, x2 = 0.4956
  mass density: 793.501 ± 0.52 kg/m3
[2]; 298.15 K, x2 = 0.5441
  mass density: 796.3 ± 0.52 kg/m3
[2]; 298.15 K, x2 = 0.603
  mass density: 799.619 ± 0.52 kg/m3
[2]; 298.15 K, x2 = 0.6477
  mass density: 802.183 ± 0.52 kg/m3
[2]; 298.15 K, x2 = 0.6984
  mass density: 805.007 ± 0.52 kg/m3
[2]; 298.15 K, x2 = 0.7506
  mass density: 807.961 ± 0.52 kg/m3
[2]; 298.15 K, x2 = 0.7997
  mass density: 810.704 ± 0.53 kg/m3
[2]; 298.15 K, x2 = 0.8461
  mass density: 813.276 ± 0.53 kg/m3
[2]; 298.15 K, x2 = 0.8994
  mass density: 816.228 ± 0.53 kg/m3
[2]; 298.15 K, x2 = 0.9503
  mass density: 819.023 ± 0.53 kg/m3
[2]; 303.15 K, x2 = 0.0491
  mass density: 762.975 ± 0.53 kg/m3
[2]; 303.15 K, x2 = 0.1041
  mass density: 766.404 ± 0.53 kg/m3
[2]; 303.15 K, x2 = 0.1506
  mass density: 769.248 ± 0.52 kg/m3
[2]; 303.15 K, x2 = 0.1996
  mass density: 772.204 ± 0.52 kg/m3
[2]; 303.15 K, x2 = 0.2461
  mass density: 774.957 ± 0.52 kg/m3
[2]; 303.15 K, x2 = 0.2978
  mass density: 778.044 ± 0.52 kg/m3
[2]; 303.15 K, x2 = 0.3507
  mass density: 781.141 ± 0.52 kg/m3
[2]; 303.15 K, x2 = 0.4139
  mass density: 784.859 ± 0.52 kg/m3
[2]; 303.15 K, x2 = 0.4496
  mass density: 786.924 ± 0.52 kg/m3
[2]; 303.15 K, x2 = 0.5145
  mass density: 790.697 ± 0.52 kg/m3
[2]; 303.15 K, x2 = 0.5478
  mass density: 792.645 ± 0.52 kg/m3
[2]; 303.15 K, x2 = 0.5967
  mass density: 795.447 ± 0.52 kg/m3
[2]; 303.15 K, x2 = 0.6501
  mass density: 798.548 ± 0.53 kg/m3
[2]; 303.15 K, x2 = 0.6989
  mass density: 801.324 ± 0.53 kg/m3
[2]; 303.15 K, x2 = 0.7495
  mass density: 804.196 ± 0.53 kg/m3
[2]; 303.15 K, x2 = 0.7992
  mass density: 807.033 ± 0.53 kg/m3
[2]; 303.15 K, x2 = 0.8481
  mass density: 809.788 ± 0.53 kg/m3
[2]; 303.15 K, x2 = 0.8984
  mass density: 812.611 ± 0.54 kg/m3
[2]; 303.15 K, x2 = 0.9488
  mass density: 815.417 ± 0.54 kg/m3

Numbers after ± are expanded uncertainties.
